AlphaSeq binding of Ab-14 light chain variants to a spike HR2 peptide

Data: MIT Lincoln Laboratory AlphaSeq set, Li et al. 2023, doi:10.1038/s41467-023-39022-2, as distributed in FLAb.

Antigen: PDVDLGDISGINAS, a 14-residue peptide of the SARS-CoV-2 spike HR2 region.

The variants keep the heavy chain, the linker and the frameworks of Ab-14 (scFv order VH, a 15-residue (Gly4Ser)3 linker, VL).
VH: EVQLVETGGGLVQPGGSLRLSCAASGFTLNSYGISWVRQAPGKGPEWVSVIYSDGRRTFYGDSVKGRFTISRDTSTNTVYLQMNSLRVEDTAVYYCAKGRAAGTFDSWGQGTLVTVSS
VL: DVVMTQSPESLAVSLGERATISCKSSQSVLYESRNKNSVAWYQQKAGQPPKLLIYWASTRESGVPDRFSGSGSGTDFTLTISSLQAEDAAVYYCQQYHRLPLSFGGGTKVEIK

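Phage display of a naive human antibody library on the peptide gave the parent. This is the validation round: designs drawn from the data on random variants, tested in the same kind of assay. Group labels follow the data file (Ctrl: baseline library sampled from a position-specific scoring matrix, with some repeated check sequences; Rand: our label for a block that the file lists under HC and that is probably the random mutants of the ten best first-round binders; En: ensemble of fine-tuned language models; GP: Gaussian process model; HC: hill climbing; Gen: genetic algorithm; Gibbs: Gibbs sampling; a sequence that several methods proposed may carry one label only). In AlphaSeq, yeast of one mating type display the scFv and yeast of the other type display the target. Binding brings cells together so that they mate, and sequencing counts the barcode pairs among the diploids. Each replicate has its own calibration line, from reference interactions of the BCL2 family. The assay was run in six technical replicates.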

The parent's light chain CDRs are KSSQSVLYESRNKNSVA, WASTRES, QQYHRLPLS; each variant's own CDRs replace them letter for letter.
Kd is apparent (estimated from mating counts) and averaged on the log scale over replicates with a signal. Smaller is tighter.
"nd" marks a missing value. The strain was present, yet no cells mated with the target were sequenced in any replicate, which points to weak or no binding.
As a blank, each scFv also met three strains without target: over all light chain designs, 4% of these pairings were detected, typically at 430 nM and seldom below 38 nM. The control count says in how many pairings with the empty strains this scFv gave a signal.
The authors' rule: three or more of the six replicates give a measured affinity, fewer mean a poor binder.
Of ten entries with the parent sequence, four were seen in most replicates (averages 2.2 nM to 240 nM), three in one and three in none, so single entries are noisy.
A sequence measured in both rounds can read differently, since the two assays cover different ranges.

| # | Kd (apparent) | replicates with signal | empty controls | CDR-L1 | CDR-L2 | CDR-L3 | group |
|---|---|---|---|---|---|---|---|
| 1 | 86 nM | 2 of 6 | 0 of 18 | KSSQSQLYESRNKNSVA | NASQRES | QQYHRLPLS | GP_Gen |
| 2 | 1.1 µM | 1 of 6 | 0 of 18 | KSSQSKLGESRNKNSVA | WASTRES | QQYHRLPLS | Ctrl |
| 3 | 1.1 nM | 6 of 6 | 1 of 18 | NVSIKEPGNWMMMDSVA | HSSLRAE | QQYWRLPLM | En_Gibbs |
| 4 | 25 nM | 6 of 6 | 0 of 18 | KSSQSVLYESRNKNGVA | WASTRES | QQYHRLPLS | Ctrl |
| 5 | 7.7 nM | 6 of 6 | 0 of 18 | KLSQVTHSESRNKNSIA | EMVNREV | QQYDRLPLS | En_HC |
| 6 | 1.2 nM | 6 of 6 | 0 of 18 | KHEEWVEYESRNKNSVA | HASTRLS | QQYHRLPLS | GP_Gibbs |
| 7 | 6.9 nM | 6 of 6 | 1 of 18 | VLGGQWGLGTTQNSSVA | NVSETML | QQYWRLPLM | En_Gibbs |
| 8 | 1.4 nM | 6 of 6 | 1 of 18 | KFSQSVLYESRDKNSVA | EASTRES | QQYHRLPLS | GP_HC |
| 9 | nd | 0 of 6 | 1 of 18 | KSSQSVLYESRNKNSVA | WASTRES | QQYHRLPLY | Ctrl |
| 10 | 6.0 nM | 6 of 6 | 0 of 18 | KLSQSDLYESRMSNNVA | MASTRMV | QQYHRLPLS | GP_Gibbs |
| 11 | 76 nM | 5 of 6 | 1 of 18 | MISQLFNMGQFAINSVA | QASERCN | QQYDRLPLM | En_Gen |
| 12 | 450 pM | 6 of 6 | 2 of 18 | KLSQSWDYESRNKNSVA | NASTRES | QQYHRLPLS | GP_Gen |
| 13 | 120 nM | 6 of 6 | 1 of 18 | KSSQSRLYESRNKNSVA | WASIRES | QQYHRLPLS | Ctrl |
| 14 | 430 pM | 6 of 6 | 1 of 18 | KSSQSWLYESRNKNSVA | NASTREN | QQYHRLPLS | GP_HC |
| 15 | 1.8 nM | 6 of 6 | 2 of 18 | SSSQSVPYESRNKNSVA | NASTREE | QQYHRLPLS | GP_HC |
| 16 | nd | 0 of 6 | 1 of 18 | KSSQSVLFEHRNKNSVA | WASTRES | QQYHRLPIS | Ctrl |
| 17 | nd | 0 of 6 | 0 of 18 | KSSQSVLYESRNKNSIA | KASTRES | QQYKRLPLS | Ctrl |
| 18 | nd | 0 of 6 | 0 of 18 | KWSQSVLYESRNKNSVA | WASTRES | QQTHRLPLS | Ctrl |
| 19 | 2.2 nM | 6 of 6 | 0 of 18 | KSSQSVGMESRNSNSVA | DASTRES | QQYHRLPLS | GP_Gibbs |
| 20 | 3.5 nM | 6 of 6 | 2 of 18 | HAYQSGLYESRNQNSVA | SASMRES | QQYHRLPLS | GP_Gibbs |
| 21 | 2.2 nM | 6 of 6 | 0 of 18 | RIFYGQERDIAHESSIA | NGMARVK | QQYHRLPLS | En_Gibbs |
| 22 | 2.5 nM | 6 of 6 | 0 of 18 | KSSQSVLYESRNKNSVA | KASTRES | QQYERLPLS | Ctrl |
| 23 | 26 nM | 2 of 6 | 0 of 18 | ANDQSVLYESRNKNSVA | WASTRES | QQYHRLPLS | Ctrl |
| 24 | 2.8 nM | 6 of 6 | 3 of 18 | MMSYGWLYGSRNKRNVA | DRETRLS | QQYDRLPLS | En_HC |
| 25 | 32 nM | 6 of 6 | 0 of 18 | TISQSAHMESHNKDNVA | DLNLRGS | QQYDRLPLS | En_HC |
| 26 | nd | 0 of 6 | 0 of 18 | RIQMTDLEGRMAWNNIA | DNEESYR | QQYVRLPLY | En_Gibbs |
| 27 | 850 pM | 6 of 6 | 1 of 18 | KLSQGVNYESRNKNSVA | GASTRES | QQYHRLPLS | GP_HC |
| 28 | 23 nM | 6 of 6 | 0 of 18 | MISQLMNMGQFAINSVA | QASIRNE | QQYDRLPLT | En_Gen |
| 29 | 79 nM | 5 of 6 | 0 of 18 | KISQMVRVGSTHSSSIA | EEVTRAK | QQYHRLPLS | En_Gen |
| 30 | 7.1 nM | 6 of 6 | 0 of 18 | QLMEEQSMRTEAQRNIA | QGEQKVH | QQYFRLPLA | En_Gibbs |
| 31 | 3.8 nM | 6 of 6 | 1 of 18 | KVSNSVMLESRAWNAVA | EASTRES | QDYHRLPLS | GP_Gibbs |
| 32 | nd | 0 of 6 | 0 of 18 | KSQQYVAYEDRNKNSVA | WASTRES | QQYARLLLS | Ctrl |
| 33 | 6.6 nM | 6 of 6 | 0 of 18 | HSSPSVLYESRNGNSVA | NASTRER | QQYHRLPLS | GP_HC |
| 34 | 180 nM | 5 of 6 | 2 of 18 | NISQMIFMETHHVNNVA | QTSTREE | QDYHRLPLS | En_HC |
| 35 | 940 pM | 6 of 6 | 1 of 18 | KSSQSVSYESRNKNSVA | QASTRES | QQYHRLPLS | Ctrl |
| 36 | 1.7 nM | 6 of 6 | 0 of 18 | HSSQSVEYESRNKNSVA | NASTRES | QQYHRLPLS | GP_HC |
| 37 | 2.5 nM | 6 of 6 | 0 of 18 | TLGQSTLMETRNKNNVA | QMSTREK | QQYHRLPLS | En_HC |
| 38 | 380 pM | 6 of 6 | 1 of 18 | KLPWSTLYESRNKNSVA | NASTRES | QQYHRLPLS | GP_HC |
| 39 | 21 nM | 6 of 6 | 1 of 18 | MLSQMWGVGTKAKNSVA | QASTRFN | QQYHRLPLI | En_Gen |
| 40 | 2.3 nM | 6 of 6 | 0 of 18 | KLSMSDLYESRNKNSVA | NASTRES | QQYHRLPLS | GP_Gen |
| 41 | 1.1 nM | 6 of 6 | 0 of 18 | KMSQSWLYESRNKNSVA | DASQRES | QQYHRLPLS | GP_Gen |
| 42 | 700 pM | 6 of 6 | 4 of 18 | KLSQSVLYESRNFNSVA | DASTRES | QQYHRLPLS | GP_Gen |
| 43 | 5.9 nM | 6 of 6 | 0 of 18 | KSSQSVWMESRNKNNVA | HASLRES | QQYHRLPLS | Ctrl |
| 44 | 15 nM | 6 of 6 | 0 of 18 | VLSDTIENQYDEADNIA | DKTETSE | QQYARLPLS | En_Gibbs |
| 45 | 5.0 nM | 6 of 6 | 0 of 18 | KFSQSVLYESRNKNSVA | WGSTRES | QQYHRLPLS | Ctrl |
| 46 | 27 nM | 6 of 6 | 0 of 18 | IISGSTLMESRNKNSVA | NAETREY | QHYDRLPLS | En_HC |
| 47 | 6.8 nM | 6 of 6 | 0 of 18 | IVSQLMLWGYHAKNSIA | EAQTKLN | QQYERLPLF | En_Gen |
| 48 | 560 pM | 6 of 6 | 0 of 18 | VLPDNLLMKESQYHSIA | NGVQRME | QQYMRLPLT | En_Gibbs |
| 49 | 180 nM | 6 of 6 | 2 of 18 | KSSQHVYNESRNKNSVA | WASTRES | QQYHRLPLS | Ctrl |
| 50 | 770 pM | 6 of 6 | 0 of 18 | NSLPSVLYESRNKNSVA | NASTRES | QQYMRLPLS | Rand |
| 51 | 630 pM | 6 of 6 | 0 of 18 | KLSQSVLYESRNKNSVA | HASTRES | QQYHRLPLM | GP_Gen |
| 52 | 1.0 nM | 6 of 6 | 3 of 18 | KLQQSMLYESRNKNSVA | NASQRLS | QQYHRLPLS | GP_Gen |
| 53 | 1.1 nM | 6 of 6 | 1 of 18 | KLLQSVLYESRNKNSVA | HASTRES | QQYHRLPLS | GP_HC |
| 54 | 250 pM | 6 of 6 | 0 of 18 | KLSQSDLYESRNKNNVA | AASTRES | QQYHRLPLS | GP_Gen |
| 55 | 48 nM | 5 of 6 | 0 of 18 | QIQGKLQHGGNQGANVA | QGVESKN | QQYYRLPLT | En_Gibbs |
| 56 | 4.3 nM | 6 of 6 | 1 of 18 | KSSISYLYESRNENSVA | EASTREL | QQYHRLPLS | GP_HC |
| 57 | 380 pM | 6 of 6 | 0 of 18 | KSSQSVWFESRNKNSVA | DASTRES | QQYHRLPLS | GP_HC |
| 58 | 19 nM | 6 of 6 | 1 of 18 | KSLWSVLYESNNKNSVA | HASTRED | QQYHRLPLS | GP_HC |
| 59 | 1.5 nM | 6 of 6 | 2 of 18 | KLSQSVLYESRTSNSVA | NASTRES | QQYHRLPLS | GP_HC |
| 60 | 4.7 nM | 6 of 6 | 4 of 18 | HMSMLTLGGMRARNSVA | QMTTREN | QQYDRLPLV | En_Gen |
| 61 | 27 nM | 5 of 6 | 0 of 18 | KLSQSVEQLSRNKNSVA | QASWREV | QAYHRLPLS | GP_Gibbs |
| 62 | 1.3 nM | 6 of 6 | 0 of 18 | KLSQSKEYESRQKNSVA | NASTREV | QQYHRLPLS | GP_Gibbs |
| 63 | 2.7 nM | 6 of 6 | 2 of 18 | KFSQSVLYESRNKNSVA | EASTRES | QQYVRLPLS | Ctrl |
| 64 | 2.4 nM | 6 of 6 | 3 of 18 | KISQSVLYESRNKNSVA | FASTRES | QQYHRLPLS | Ctrl |
| 65 | 9.8 nM | 6 of 6 | 2 of 18 | KLSQSDGGESRNPNSVA | HASCRCS | QQYHRLPLS | GP_Gibbs |
| 66 | 71 nM | 4 of 6 | 0 of 18 | NMNVSEDQWPVSKNAIA | QDTLRNL | QQYASLPLS | En_Gibbs |
| 67 | nd | 0 of 6 | 0 of 18 | KSSQSVLYASKNKNSVA | WASTRES | QQYHRLPLS | Ctrl |
| 68 | 11 nM | 6 of 6 | 4 of 18 | KLMQQTLYESRNKNSVA | WASTREE | QQYHRLPLS | GP_HC |
| 69 | 6.8 nM | 6 of 6 | 0 of 18 | KLQQSELMESRNMNSVA | HASKRES | QDYHRLPLS | GP_Gibbs |
| 70 | 1.0 nM | 6 of 6 | 1 of 18 | KVSQSVLYESRNKNAVA | GASTRES | QQYHRLPLS | GP_HC |
| 71 | 37 nM | 6 of 6 | 2 of 18 | NMTGTKEMQSNNINNIA | EMNERFQ | QQYFQLPLS | En_Gibbs |
| 72 | 1.1 nM | 6 of 6 | 0 of 18 | KLTMITGLEKVQKNNVA | EMETREK | QQYNRLPLS | En_Gen |

Again, the first 7 entries without any signal:

{"CDR-L1": "KSSQSVLYESRNKNSVA", "CDR-L2": "WASTRES", "CDR-L3": "QQYHRLPLY", "group": "Ctrl", "Kd (apparent)": "nd", "replicates with signal": "0 of 6", "empty controls": "1 of 18"}
{"CDR-L1": "KSSQSVLFEHRNKNSVA", "CDR-L2": "WASTRES", "CDR-L3": "QQYHRLPIS", "group": "Ctrl", "Kd (apparent)": "nd", "replicates with signal": "0 of 6", "empty controls": "1 of 18"}
{"CDR-L1": "KSSQSVLYESRNKNSIA", "CDR-L2": "KASTRES", "CDR-L3": "QQYKRLPLS", "group": "Ctrl", "Kd (apparent)": "nd", "replicates with signal": "0 of 6", "empty controls": "0 of 18"}
{"CDR-L1": "KWSQSVLYESRNKNSVA", "CDR-L2": "WASTRES", "CDR-L3": "QQTHRLPLS", "group": "Ctrl", "Kd (apparent)": "nd", "replicates with signal": "0 of 6", "empty controls": "0 of 18"}
{"CDR-L1": "RIQMTDLEGRMAWNNIA", "CDR-L2": "DNEESYR", "CDR-L3": "QQYVRLPLY", "group": "En_Gibbs", "Kd (apparent)": "nd", "replicates with signal": "0 of 6", "empty controls": "0 of 18"}
{"CDR-L1": "KSQQYVAYEDRNKNSVA", "CDR-L2": "WASTRES", "CDR-L3": "QQYARLLLS", "group": "Ctrl", "Kd (apparent)": "nd", "replicates with signal": "0 of 6", "empty controls": "0 of 18"}
{"CDR-L1": "KSSQSVLYASKNKNSVA", "CDR-L2": "WASTRES", "CDR-L3": "QQYHRLPLS", "group": "Ctrl", "Kd (apparent)": "nd", "replicates with signal": "0 of 6", "empty controls": "0 of 18"}